According to US12351653B1, “Pharmaceutical compositions comprising novel cyclic peptides” (LISATA THERAPEUTICS, INC., priority 2019, dated 2025):
“Also recorded” adds a separate entry of the source.

Tests used:
[1] = Pharmacokinetic study in mice (IV bolus, LC-MS plasma levels); type: in vivo, CD-1 ICR mice; conditions: IV bolus 4.5 mg/kg
Experimental: CEND-1 or iRGD was given to fed CD-1 ICR mice by IV bolus at a nominal dose of 4.5 mg/kg in both groups, with four mice in each group, and an actually administered dose of 3.87 mg/kg for CEND-1 and 4.33 mg for iRGD. CEND-1 and iRGD were formulated in saline at a concentration of 0.9 mg/ml. Liquid chromatography-mass spectroscopy (LC-MS) was used to determine plasma levels of CEND-1 and iRGD in mice at different time points. Pharmacokinetic parameters were then calculated.

[2] = Phase I trial (CEND-001): safety; type: in vivo, human
Experimental: (§1) The open-label, dose escalation, multicenter (3 active sites in Australia) trial involved a run-in phase with ascending doses of CEND-1 monotherapy (1-7 days), followed by the combination of CEND-1 with nab-paclitaxel (125 mg/m^2) and gemcitabine (1000 mg/m^2) on days 1, 8, 15 of a 21-day treatment cycle. Patients will first receive the intravenous infusion of nabpaclitaxel (125 mg/m^2 over 30 minutes (±3 minutes)). CEND-1 is given intravenously at the applicable dose level as a slow IV push over 1 minute (±30 seconds) immediately following completion of the post-nabpaclitaxel saline flush. The intravenous infusion of gemcitabine (1000 mg/m2 over 30 minutes (±3 minutes)) will be started as soon as possible, but at the latest within 10 minutes of CEND-1 administration.
During the CEND-1 run-in during dose escalation, the following definition of DLT was used:
A DLT in the run-in period was defined as: • Grade 4 neutropenia lasting ≥5 days or Grade 3 or 4 neutropenia with fever and/or infection • Grade 4 thrombocytopenia (or Grade 3 with bleeding) • Grade 3 or 4 treatment-related non-hematological toxicity (Grade 3 nausea, vomiting or diarrhea that last >72 hours despite maximal treatment constitutes a DLT, insufficient treatment will not constitute an exception to the DLT criteria, as this would constitute inadequate conduct of the study) • Dosing delay greater than 2 weeks due to treatment-emergent AEs or related severe laboratory abnormalities.
During the combination portion of the study, the following definition of dose-limiting toxicity was used: • Any side effect that is more severe, longer in duration or more frequent than side effects expected from the nab-paclitaxel and gemcitabine package insert. • Any side effect that is not included in the nab-paclitaxel and gemcitabine package insert that meets the DLT definition of the monotherapy above.

[3] = Stability in phosphate-buffered saline, pH=7.4; type: physicochemical; conditions: pH = 7.4, 37° C.
Experimental: (§2) For the stability studies in phosphate-buffered saline (PBS), pH=7.4, the 10×PBS stock was diluted to normal 1×PBS concentration and CEND-1 or iRGD was dissolved to a final concentration of ˜1 mg/mL. For the stability studies in pooled human plasma, the frozen pooled human plasma was first thawed, mixed and then clarified by centrifugation. CEND-1 or iRGD was dissolved at a final concentration of ˜2.5 mg/mL in clarified pooled human plasma. For the stability studies with carboxypeptidase Y (CY) a 50 mM sodium phosphate buffer at pH=6.5 containing 0.15 M sodium chloride, 6 Units/mL of carboxypeptidase and ˜0.1 mg/mL CEND-1 or iRGD was prepared. For the stability studies with carboxypeptidase B (CB) a 25 mM Tris·HCl buffer at pH=7.7 containing 0.10 M sodium chloride, 14 Units/mL of carboxypeptidase B and 0.1 mg/mL CEND-1 or iRGD was prepared. For the stability studies with aminopeptidase (AP) a 20 mM Tris·HCl buffer at pH=8 containing 10 Units/mL of carboxypeptidase B and ˜0.1 mg/mL CEND-1 or iRGD was prepared.
(§3) The solutions were incubated at 25° C. and 37° C. and samples were pulled at appropriate time intervals for analysis. Samples in PBS, samples with carboxypeptidase Y and B and aminopeptidase were directly used for HPLC analysis without prior dilution. […]

carboxypeptidase Y = target: T1, carboxypeptidase Y (Saccharomyces cerevisiae, UniProt P00729); experiment: Stability in presence of carboxypeptidase Y; type: in vitro ADME; conditions: 25° C., 50 mM sodium phosphate buffer pH=6.5, 6 Units/mL enzyme
T1 construct: purchased
T1 sequence (P00729 112-532): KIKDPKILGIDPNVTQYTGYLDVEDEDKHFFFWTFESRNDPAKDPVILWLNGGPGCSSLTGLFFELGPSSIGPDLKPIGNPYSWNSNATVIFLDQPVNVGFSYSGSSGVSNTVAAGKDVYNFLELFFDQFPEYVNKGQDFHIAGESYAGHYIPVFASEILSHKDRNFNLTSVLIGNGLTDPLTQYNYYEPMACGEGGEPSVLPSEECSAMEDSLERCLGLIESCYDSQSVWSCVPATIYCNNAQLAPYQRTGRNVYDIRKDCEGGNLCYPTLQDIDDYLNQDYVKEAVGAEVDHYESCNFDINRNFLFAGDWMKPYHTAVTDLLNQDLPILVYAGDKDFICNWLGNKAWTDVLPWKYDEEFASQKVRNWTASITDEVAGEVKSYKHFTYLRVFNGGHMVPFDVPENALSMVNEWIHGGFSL
Experimental: as §2, §3

carboxypeptidase B = experiment: Stability in presence of carboxypeptidase B; type: in vitro ADME; conditions: 25° C., 25 mM Tris·HCl buffer pH=7.7, 14 Units/mL enzyme
Experimental: as §2, §3

[4] = Phase I trial (CEND-001): CEND-1 pharmacokinetics; type: in vivo, human; conditions: patients
Experimental: as §1
In the CEND1-001 trial, as set forth above, CEND-1 was given initially at escalating doses from 0.2 mg/kg to 3.2 mg/kg during a run-in period of 1 to 7 days, during which PK and safety of the single agent were assessed.

aminopeptidase = experiment: Stability in presence of aminopeptidase; type: in vitro ADME; conditions: 25° C., 20 mM Tris·HCl buffer pH=8, 10 Units/mL enzyme
Experimental: as §2, §3

[5] = Stability in pooled human plasma; type: in vitro ADME; conditions: 37° C.
Experimental: as §2, §3

[6] = with nab-paclitaxel and gemcitabine, CTCAE version 5

## Ac-Cys-Arg-Gly-Asp-Lys-Gly-Pro-Asp-Cys-NH2 (Cys & Cys Bridge) [CEND-1]
[1]
  Increased half-life compared to iRGD: 46%
[1]; 1 hour after administration
  Increase of mean plasma concentration of CEND-1 over iRGD: 2.56 fold
[1]; mean
  C0: 11908 ng/mL
  T1/2: 14.6 min
  Tlast: 1.50 h
[1]; time 0.05 h
  Mean Cmax plasma concentration: 9561 ng/mL
[1]; time 0.167 h
  Mean Cmax plasma concentration: 5756 ng/mL
[1]; time 0.5 h
  Mean Cmax plasma concentration: 1917 ng/mL
[1]; time 1.0 h
  Mean Cmax plasma concentration: 535 ng/mL
[1]; time 1.5 h
  Mean Cmax plasma concentration: 121 ng/mL
[2]; 31 patients enrolled, 9 caused by progression of primary disease, 1 due to stroke
  Patient deaths reported during the study: 10
[2]; CEND-1 0.2-3.2 mg/kg with nab-paclitaxel and gemcitabine
  Dose limiting toxicities: No dose limiting toxicities; also recorded: no DLTs
[2]; CEND-1 monotherapy, any dose level 0.2 to 3.2 mg/kg, run-in of 1 to 7 days
  DLTs or grade 3 or 4 adverse events, single agent run-in: no DLTs or grade 3 or 4 adverse events
[2]; with nab-paclitaxel and gemcitabine, 5 patients, data cutoff 27 Apr. 2020
  Drug related grade 3-4 adverse events: anemia: 17%
[2]; with nab-paclitaxel and gemcitabine, 18 patients, data cutoff 27 Apr. 2020
  Drug related grade 3-4 adverse events: neutropenia: 62%
[2]; [6]
  Frequency of grade 3-4 bone marrow toxicity: anaemia: 24%
  Frequency of grade 3-4 bone marrow toxicity: leukopenia: 14%
  Frequency of grade 3-4 bone marrow toxicity: neutropenia: 55%
  Frequency of grade 3-4 bone marrow toxicity: thrombocytopenia: 3%
[3]
  Degradation Rate: 1.1 %/Day
  Ratio Deg Rate iRGD/CEND-1: 3
Carboxypeptidase Y
  Degradation by carboxypeptidase Y: neither degraded
Carboxypeptidase B
  Degradation by carboxypeptidase B: neither degraded
[4]; 0.2 to 3.2 mg/kg, no increase with repeat dosing
  Cmax dependence on dose: dose proportional increase
[4]; IV push, all days of PK sampling (minimum 0.03, maximum 0.55)
  Median Tmax: 4.02 min
aminopeptidase
  Degradation by aminopeptidase: neither degraded
[5]
  Degradation Rate: 2.5 %/Day
  Ratio Deg Rate iRGD/CEND-1: 1.6
